Screening results: PubChem BioAssay, National Center for Advancing Translational Sciences (NCATS)
Rows were chosen to be rich in hits. Some 2.2% of all compounds tested hit in one or more screens of this group.
Nrf2 inh – inhibitors of Nrf2 signaling; 2.1% of 360,000 active; Potency, µM (highest dose often 46 µM), inactives show at the highest dose activity change, negative = inhibition, actives largely listed as inhibitors; AID 504444; A549 ARE-Fluc reporter, luciferase luminescence, 18-24 h; also: potency is read from the fitted curve at half-maximal effect; % is scaled to controls: 0 for no effect and ±100 for the full control effect; nearly all actives have a fitted effect of over 60% in size
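A549 ARE_Fluc cells (5000/well, 5% FBS OPTI-MEM) pre-incubated 2 h, then treated with compounds 18-24 h at 37C/5% CO2 in concentration-response. CellTiter-Fluor viability read first; BugLite luciferase luminescence after 15 min at room temperature gives Nrf2 activity.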
A549 tox – counter-screen for Nrf2 inhibitors: cytotoxicity in A549 cells | 0.16% of 390,000 active | Potency, µM (series often up to 46 µM), for the others: at the highest dose activity change, negative = cytotoxicity, usual class: inhibitors | AID 504648 | A549 ARE-Fluc cells, CellTiter-Fluor viability, 18-24 h; also: potency is read from the fitted curve at half-maximal effect; % is scaled to controls: 0 for no effect and ±100 for the full control effect
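Cytotoxicity counterscreen: CellTiter-Fluor fluorescence was measured in A549 ARE_Fluc cells after 18-24 h of compound exposure in a concentration series. The subsequent BugLite luminescent read reports ARE-luciferase activity.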
Nrf2 ARE act – Nrf2 pathway activation | AREc32 ARE-luciferase reporter (MCF7-derived line), luminescence, 24 h | Potency, µM (top dose mostly 46.1 µM), for inactives: at the top dose activation, actives largely listed as activators | 0.31% of 410,000 active; also: potency is read from the fitted curve at half-maximal effect; % of control where 0% means no effect; nearly all actives have a fitted effect of over 65% in size
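Luciferase luminescence (Steady-Glo, 30 min at room temperature) served as the read-out of ARE activation in AREc32 cells treated with compounds for 24 hr at 37 deg C.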
B2AR arrestin – agonists driving beta-arrestin recruitment to human beta2-adrenergic receptor. beta-arrestin recruitment to beta2AR, cell-based reporter. Potency, µM (highest dose often 46.1 µM), without a hit: top-dose activation, hits mostly activators. AID 492947. 0.02% of 330,000 active;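 also: potency is read from the fitted curve at half-maximal effect; 0% = DMSO controls and full agonism = EC100 isoproterenol or metaproterenol; nearly all actives have a fitted effect of over 65% in size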
miR-21 reporter – raises the signal of a miR-21 reporter; AID 2288; 340,000 tested, under 10 active; Potency, µM (doses to about 38.3 µM), inactives show at the top dose reporter change, positive = more light; HeLa miR-21 FLuc reporter, luciferase, 48 h; active = well fitted rising curve with a large enough effect; inconclusive = small, poorly fitted or top-dose-only effect; inactive = no such curve, though single readings can be large or run the other way;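 note: % of control where 0% means no effect; miR-21 action dims this reporter so a rising signal means less miR-21 action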
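Luminescence from a firefly luciferase reporter carrying a miR-21 binding site downstream, stably expressed under a CMV promoter in HeLa cells that make miR-21 endogenously, reports miRNA modulation after 48 h compound exposure up to approximately 40uM final.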
* = called active by the depositor; u = inconclusive; x = no result; ! = not active in a repeat; [ ] = another dose, or the depositor's remark. Unless noted, calls follow the shape of the dose curve; as a rule, active = well fitted curve in the direction sought with a large enough effect; inconclusive = small, poorly fitted or top-dose-only effect, or another doubt; inactive = no such curve, though single readings can be large; an effect the other way counts as inactive or inconclusive.

SMILES	Nrf2 inh	A549 tox	Nrf2 ARE act	B2AR arrestin	miR-21 reporter
CC1(C)COC(/C=C/c2cccc([N+](=O)[O-])c2)=N1	u	u	12.6µM*	0.1%	u
COc1ccc(Cc2noc(CN3CCN(c4ccc(Cl)cn4)CC3)n2)cc1OC	25.9µM*	-12.4%	0.3%	-0.1%	15.4%
COc1ccc(Cc2noc(CN3CCN(Cc4cccc(Cl)c4)CC3)n2)cc1OC	u	1.1%	0.3%[9.22 µM]	0.2%	2.0%
CC(C)(C)C(=O)Nc1ccc(NC(=O)c2ccco2)nc1	2.06µM*	-1.9%	-1.6%	-0.3%	u
CCOC(=O)Cc1ccc(NC(=O)c2ccc(C(C)(C)C)cc2)cc1	2.59µM*	u	-1.2%	-0.4%	u
CCOC(=O)Cc1ccc(NC(=O)c2ccccc2Br)cc1	u	4.9%	-0.1%	0.1%	6.0%
CC(C)(C)c1ccc(C(=O)Nc2ccc(NC(=O)c3ccco3)cc2)cc1	9.2µM*	u	10.4%	0.4%	-10.3%
CCOc1ccccc1NC(=O)c1ccc(NC(=O)c2ccco2)cc1	23.1µM*	-1.7%	-0.2%	0.0%	-10.6%
O=C(Nc1ccc(NC(=O)c2ccco2)nc1)c1ccco1	u	4.6%	-1.3%	0.0%	-3.6%
N#Cc1ccc(NS(=O)(=O)c2ccc3c(c2)CCC(=O)N3)cc1	-0.2%	-3.0%	x	x	x
CCOc1cc(NC(=O)c2ccco2)c(OCC)cc1NC(=O)c1cc(OC)c(OC)c(OC)c1	18.4µM*	-4.3%	0.7%	0.3%	-3.6%
COc1ccc(C(=O)Nc2ccc(Cl)cc2C(=O)NCc2ccco2)cc1OC	20.6µM*	u	2.7%	7.0%	3.2%
COc1ccc(C(=O)Nc2ccccc2C(=O)NCc2ccco2)cc1OC	3.7%	-9.3%	7.7%	0.2%	-6.3%
Cc1ccc(NC(=O)C2=CC(c3cccs3)=NS(=O)(=O)N2C)cc1	u	u	0.4%	0.1%	-6.6%
CCc1ccc(NC(=O)C2=CC(c3cccs3)=NS(=O)(=O)N2C)cc1	16.4µM*!	-16.3%	-0.7%	-0.6%	-1.3%
CC(=O)c1cccc(NS(=O)(=O)c2ccc3[nH]c4c(c3c2)CCCCC4)c1	16.4µM*	-17.6%	-2.8%	x	u
COc1ccc(NS(=O)(=O)c2ccc3[nH]c4c(c3c2)CCCC4)c(OC)c1	u	-11.4%	-0.9%	x	u
CN(CC(=O)NCc1ccccc1)S(=O)(=O)c1ccc2[nH]c3c(c2c1)CCCC3	-18.8%	-3.6%	5.3%	x	-1.0%
COc1ccc(NS(=O)(=O)c2ccc3[nH]c4c(c3c2)CCCCC4)cc1	16.4µM*	u	-0.5%	x	-11.3%
CC(=O)c1cccc(NS(=O)(=O)c2ccc3[nH]c4c(c3c2)CCCCCC4)c1	x	-21.9%	3.6%	x	9.1%
COc1ccc(OC)c(CNS(=O)(=O)c2ccc3[nH]c4c(c3c2)CCCCC4)c1	16.4µM*	-10.7%	-1.0%	x	7.9%
CN(Cc1ccccc1)S(=O)(=O)c1ccc2[nH]c3c(c2c1)CCCCC3	16.4µM*	2.2%	3.3%	x	15.5%
CCOC(=O)c1ccc(NC(=O)CSc2ncc(S(=O)(=O)c3ccc(C)c(Cl)c3)c(=O)[nH]2)cc1	x	6.1%	0.0%	x	-0.9%
Cc1cccc(CNC(=O)CCCN2C(=O)c3cccnc3Oc3ccccc32)c1	-7.8%	-1.3%	1.0%	x	0.9%
O=C(Nc1ccc2[nH]c3c(c2c1)CCCC3)c1ccco1	u	-7.4%	12.6µM*	-0.2%	-5.5%
NC(N)=NC(=O)Cc1c(Cl)cccc1Cl	8.2µM*	-9.3%	-0.3%	-0.4%	7.5%
COc1cc(C2Nc3cccc4cccc(c34)N2)ccc1O	-5.0%	-11.5%	0.6%	-0.4%	-2.7%
COc1ccc(Br)cc1C1Nc2cccc3cccc(c23)N1	13.9%	-1.2%	12.6µM*	2.2%	17.9%
O=C1CCCC2=C1C1(CCCC1)N=C(Nc1nc3cc4ccccc4cc3o1)N2	-2.4%	-2.1%	x	x	x
CCC1CSC(Nc2ccc(C(=O)/C=C/c3ccc(Oc4ccccc4)cc3)cc2)=N1 (centres undefined)	u	-16.8%	27.8%	-1.2%	-2.2%

Looked up by compound from the entries so far:
SMILES	Nrf2 inh	A549 tox	Nrf2 ARE act	B2AR arrestin	miR-21 reporter
Cc1cccc(CNC(=O)CCCN2C(=O)c3cccnc3Oc3ccccc32)c1	-7.8%	-1.3%	1.0%	x	0.9%
O=C1CCCC2=C1C1(CCCC1)N=C(Nc1nc3cc4ccccc4cc3o1)N2	-2.4%	-2.1%	x	x	x
COc1cc(C2Nc3cccc4cccc(c34)N2)ccc1O	-5.0%	-11.5%	0.6%	-0.4%	-2.7%
COc1ccc(Br)cc1C1Nc2cccc3cccc(c23)N1	13.9%	-1.2%	12.6µM*	2.2%	17.9%
COc1ccc(NS(=O)(=O)c2ccc3[nH]c4c(c3c2)CCCCC4)cc1	16.4µM*	u	-0.5%	x	-11.3%
COc1ccc(NS(=O)(=O)c2ccc3[nH]c4c(c3c2)CCCC4)c(OC)c1	u	-11.4%	-0.9%	x	u

Going on with the list:
SMILES	Nrf2 inh	A549 tox	Nrf2 ARE act	B2AR arrestin	miR-21 reporter
CCC1CSC(Nc2ccc(C(=O)/C=C/c3cccc(C)c3)cc2)=N1 (centres undefined)	23.1µM*	-18.2%	-0.3%	-0.6%	2.8%
COc1ccc(-c2cc3ccc(O)c(CN4CCCC4)c3oc2=O)cc1OC	x	u	6.8%	x	-52.1%
O=C(Nc1ccc(N2CCOCC2)nc1)c1ccc(Cl)cc1	20.6µM*	-19.7%	-0.2%	-0.2%	-15.5%
O=C(COc1ccc(Cl)cc1)Nc1ccc(C(=O)OCc2cc(=O)n3ccsc3n2)cc1	x	-4.5%	-0.7%	x	16.3%
COc1ccc(OC)c(CCNC(=O)Cn2nc(C)c3c(C)n(-c4ccc(C)cc4)nc3c2=O)c1	10.3µM*	-15.1%	2.5%	0.2%	23.6%
CCCN1CCC(=O)N(C(CSc2ccc(Br)cc2)c2ccccc2)CC1 (centres undefined)	u	-8.1%	x	x	x
Cc1cc(C)c(NC(=O)COC(=O)c2cccc3c2C(=O)c2ccccc2C3=O)c(C)c1	16.4µM*	-11.1%	0.3%	-0.4%	-17.0%
O=C(COC(=O)c1cccc2c1C(=O)c1ccccc1C2=O)NC1CCCCC1	u	-20.8%	0.3%	-0.2%	20.6%
Cc1ccc(NC(=O)COC(=O)c2cccc3c2C(=O)c2ccccc2C3=O)c(C)c1	u	-1.0%	0.2%	-0.3%	-3.3%
Cc1ccc(C)c(NC(=O)COC(=O)c2cccc3c2C(=O)c2ccccc2C3=O)c1	13µM*	-1.6%	-0.1%	-0.5%	-4.9%
C=C1CC2(OC1=O)c1ccccc1CCc1ccccc12	16.4µM*	u	u	x	x
Cc1ccccc1CN(c1ccc(C(=O)N2CCc3ccccc3C2)cc1)S(C)(=O)=O	14.6µM*	-26.6%	0.6%	0.1%	-1.7%
Cc1c(C(=O)Nc2ccc(OC(F)(F)F)cc2)sc2nc3n(c(=O)c12)CCC3	10.3µM*	-16.7%	2.9%	-0.1%	8.0%
CCCN1CNc2c(c(=O)[nH]c(=S)n2CCc2ccc(OC)cc2OC)C1	-3.2%	15.2%	x	x	x
O=S(=O)(c1ccc(Oc2ncnc3scc(-c4ccccc4)c23)cc1)N1CCOCC1	16.4µM*	-4.7%	4.1%	0.4%	9.9%
O=S1(=O)C=C(Sc2nc3ccccc3s2)c2ccccc21	18.4µM*	23.1µM*	-2.1%	-0.2%	u
Cc1cccc(Cn2cc(C(=O)Nc3ccc(S(N)(=O)=O)cc3)ccc2=O)c1	x	-6.7%	-0.3%	x	1.5%
CC(=O)Nc1cccc(NC(=O)c2c(-c3c(Cl)cccc3Cl)noc2C)c1	-3.6%	-3.7%	0.3%	-1.1%	12.8%
Cc1onc(-c2ccccc2)c1C(=O)Nc1ncc([N+](=O)[O-])s1	10.3µM*	u	7.4%	-0.2%	u
Cc1noc(NC(=O)c2c(-c3c(Cl)cccc3Cl)noc2C)c1[N+](=O)[O-]	14.6µM*	-13.1%	0.1%	-0.4%	-0.5%
CCCN1CNc2c(c(=O)[nH]c(=S)n2CCc2ccc(Cl)c(Cl)c2)C1	4.7%	14.8%	x	x	x
